Test results taken from PubChem BioAssay AID639 (Emory University Molecular Libraries Screening Center, 2007).
The entries are a selection whose mix differs from that of the whole data set. Calls of active or inactive are those of the source. No stated cut-off is given here; in the data, active means activity above about 200%; inactive means the rest.

By UniProt entry, the sequences of proteins in these tests, tags left out.
UniProt P03372, whole entry, looked up: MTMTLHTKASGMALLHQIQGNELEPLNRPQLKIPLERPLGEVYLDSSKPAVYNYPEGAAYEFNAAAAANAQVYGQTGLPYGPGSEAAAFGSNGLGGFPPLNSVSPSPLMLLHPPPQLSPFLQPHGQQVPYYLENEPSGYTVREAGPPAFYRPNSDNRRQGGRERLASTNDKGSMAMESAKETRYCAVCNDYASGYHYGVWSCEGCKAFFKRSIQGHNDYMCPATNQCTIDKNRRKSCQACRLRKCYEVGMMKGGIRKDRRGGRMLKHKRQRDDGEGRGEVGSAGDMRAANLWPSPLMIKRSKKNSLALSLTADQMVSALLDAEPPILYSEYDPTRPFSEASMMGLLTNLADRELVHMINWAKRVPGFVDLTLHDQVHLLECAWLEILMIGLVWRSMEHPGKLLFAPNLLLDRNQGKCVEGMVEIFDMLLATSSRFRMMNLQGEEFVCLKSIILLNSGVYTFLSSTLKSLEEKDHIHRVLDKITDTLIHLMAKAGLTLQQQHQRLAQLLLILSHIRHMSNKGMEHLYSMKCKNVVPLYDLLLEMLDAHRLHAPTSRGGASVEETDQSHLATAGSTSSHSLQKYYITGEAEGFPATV

Biological target: Estrogen receptor (Homo sapiens) (UniProt P03372)
Test: ERα coactivator recruitment potentiators – biochemical, TR-FRET, ERα LBD, low estradiol, primary screen (AID 639);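 further: binding measured in presence of low estradiol as agonist stimulus; 0% = peptide alone without receptor and 100% = receptor with peptide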
Conditions: TR-FRET ERalpha-LBD/SRC-Cy5 coactivator binding, 2 h; at 25.6 µM; active compounds read high; 100 = basal binding, no effect

Row | Structure (SMILES) | coactivator binding (% of control)
1 | c1nnnn1CCn1cnnn1 | inactive: 120%
2 | O=P(Nc1nccs1)(c1ccccc1)c1ccccc1 | inactive: 104%
3 | O=C(OC1CN2CCC1CC2)c1cccc(Cl)c1 (configuration not stated) | inactive: 76.5%
4 | COC(=O)c1cc2c(s1)N=C(c1ccccc1)N(C)P2(=O)N1CCOCC1 (configuration not stated) | inactive: 99%
5 | O=P1(Nc2nc3ccc(Cl)cc3s2)COc2ccccc2O1 (configuration not stated) | inactive: 104%
6 | CN1CCCC(OC(=O)C(c2ccccc2)c2ccccc2)C1 (configuration not stated) | inactive: 119%
7 | Cc1c2non([O-])c-2c(C)[n+](=O)[n+]1[O-] | inactive: 95.8%
8 | Oc1ccccc1CNc1ccccn1 | inactive: 117%
9 | CCOP(=O)(Nc1ccccc1)OCC | inactive: 92.8%
10 | O=[N+]([O-])c1cccc2n[nH]nc12 | inactive: 106%
11 | CCc1nc2c(n1)c1c(non1O)c1c2no[n+]1[O-] | inactive: 96%
12 | CC1CCN(C(=O)Oc2c(Cl)cc(Cl)c3cccnc23)CC1 | inactive: 92.6%
13 | O=C(COc1ccccc1)OC1CN2CCC1CC2 (configuration not stated) | inactive: 110%
14 | COP1(=S)c2c(C)nn(CCC#N)c2N=C(c2ccc(F)cc2)N1C (configuration not stated) | inactive: 121%
15 | CCC(C)N(CC(C)C)C(=S)SC(NC(C)=O)C(Cl)(Cl)Cl (configuration not stated) | inactive: 113%
16 | ClCCSc1nnc(-c2cccnc2)o1 | inactive: 100%
17 | O=C(OC1CN2CCC1CC2)C12CC3CC(CC(C3)C1)C2 (configuration not stated) | inactive: 107%
18 | Cc1cccc(OCC(=O)OC2CN3CCC2CC3)c1 (configuration not stated) | inactive: 88.1%
19 | CCOP1(=S)c2c(C)nn(CCC#N)c2N=C(c2ccccc2F)N1C (configuration not stated) | inactive: 103%
20 | CCOP1(=S)c2c(C)nn(CCC#N)c2N=C(c2ccc(F)cc2)N1C (configuration not stated) | inactive: 96.8%
21 | Cc1nn(-c2ccccc2)c2c1P(=O)(N1CCOCC1)N(C)C(c1ccccc1)=N2 (configuration not stated) | inactive: 101%
22 | Cc1ccc(OCC(=O)OC2CN3CCC2CC3)cc1 (configuration not stated) | inactive: 108%
23 | O=P1(Nc2ccc(Br)cn2)COc2ccccc2OC1 | inactive: 87.2%
24 | O=P1(Nc2ncccn2)COc2ccccc2OC1 | inactive: 99.5%
25 | Clc1n[nH]nc1-c1nn[nH][15n]1 | inactive: 124%
26 | O=P1(Nc2ccccn2)COc2ccccc2OC1 | inactive: 126%
27 | CC1(CBr)Cn2c(nc3ccccc3c2=O)S1 (configuration not stated) | inactive: 98.5%
